Test [1] concerns the target BIR3 domain of XIAP (Homo sapiens (Human), UniProt P98170). In words: TR-FRET assay for BIR3 (inhibition of binding of XIAP BIR3 domain to SMAC-derived Peptide A). The note with it: read-out: IC50 BIR3. (In TR-FRET formats the signal depends on donor and acceptor labels being close together.)
The target of test [2] is BIR2 domain of XIAP (Homo sapiens (Human), UniProt P98170, C202A/C213G). In words: TR-FRET assay for BIR2 (inhibition of binding of XIAP BIR2 domain to SMAC-derived Peptide A). The note with it: 6x His-tagged BIR2 domain (aa 124-240 of XIAP) 10 nM, Peptide A 20 nM.
Where [3] appears, read: 6x His-tagged BIR3 domain (aa 241-356 of XIAP) 10 nM, Peptide A 20 nM, TR-FRET.

Sequences of proteins named here, by UniProt entry; tags and fusion partners are left off. A line that says so, or that is headed by a name, gives the form on record, which may keep a tag or linker. Residues count along the entry.
UniProt P98170, 241-356 with tags or gaps limits assumed: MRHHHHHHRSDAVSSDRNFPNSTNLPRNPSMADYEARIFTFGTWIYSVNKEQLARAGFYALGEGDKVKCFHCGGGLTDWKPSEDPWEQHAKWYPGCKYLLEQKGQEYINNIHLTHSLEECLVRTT
UniProt P98170, 124-240 with tags or gaps C202A/C213G limits assumed: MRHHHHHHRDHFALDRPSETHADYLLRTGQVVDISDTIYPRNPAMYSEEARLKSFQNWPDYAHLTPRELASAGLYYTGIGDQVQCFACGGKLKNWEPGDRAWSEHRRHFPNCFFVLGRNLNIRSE

pIC50: −log10 of the molar value. Where a name gives a salt, the structure may show the parent alone. Read-outs that look alike come from different tables or passages of the source.

The pIC50 is −log10 of the IC50, conventionally taken in molar units. In the case of `CN[C@@H](C)C(=O)N[C@H]1CN(Cc2ccccc2)c2ccccc2N(Cc2c(OC)ccc3cc(Br)ccc23)C1=O` [Example 77, (S)—N—((S)-5-Benzyl-1-((6-bromo-2-methoxynaphthalen-1-yl)methyl)-2-oxo-2,3,4,5-tetrahydro-1H-benzo[b][1,4]diazepin-3-yl)-2-(methylamino)propanamide trifluoroacetate], the pIC50 was 4.32 in test [1] and 7.33 in test [2].
For the compound `CN[C@@H](C)C(=O)N[C@H]1CN(C(=O)c2ccc(F)cc2)c2cc(C#N)ccc2N(Cc2c(OC)ccc3c(Br)cccc23)C1=O` [Example 150, (S)-N-((S)-1-((5-bromo-2-methoxynaphthalen-1-yl)methyl)-7-cyano-5-(4-fluorobenzoyl)-2-oxo-2,3,4,5-tetrahydro-1H-benzo[b][1,4]diazepin-3-yl)-2-(methylamino)propanamide hydrochloride], the pIC50 in test [1] (setting [3]) was 4.91; in test [2] it was 8.04.
`CN[C@@H](C)C(=O)N[C@H]1CN(C(=O)CS(C)(=O)=O)c2cc(C#N)ccc2N(Cc2c(C)ccc3ccccc23)C1=O` [Example 165, (S)-N-((S)-7-cyano-1-((2-methylnaphthalen-1-yl)methyl)-5-(2-(methylsulfonyl)acetyl)-2-oxo-2,3,4,5-tetrahydro-1H-benzo[b][1,4]diazepin-3-yl)-2-(methylamino)propanamide hydrochloride]: the pIC50 was below 4.26 in test [1] (setting [3]) and 7.23 in test [2].
Take `CN[C@@H](C)C(=O)N[C@H]1CN(C(=O)c2ccc(C#N)cc2)c2cc(Cl)ccc2N(Cc2c(OC)ccc3c(Br)cccc23)C1=O` [Example 127, (S)-N-((S)-1-((5-bromo-2-methoxynaphthalen-1-yl)methyl)-7-chloro-5-(4-cyanobenzoyl)-2-oxo-2,3,4,5-tetrahydro-1H-benzo[b][1,4]diazepin-3-yl)-2-(methylamino)propanamide hydrochloride]: the results for the pIC50 in test [1] (setting [3]) and in test [2] were 4.57 and 8.04, respectively.
On the same counts, the results for `CN[C@@H](C)C(=O)N[C@H]1CN(C(=O)c2ccc(C#N)cc2)c2cc(C#N)ccc2N(Cc2c(OC(F)F)ccc3ccccc23)C1=O` [Example 142, (S)-N-((S)-7-cyano-5-(4-cyanobenzoyl)-1-((2-(difluoromethoxy)naphthalen-1-yl)methyl)-2-oxo-2,3,4,5-tetrahydro-1H-benzo[b][1,4]diazepin-3-yl)-2-(methylamino)propanamide hydrochloride] are 4.33 and 7.49.
Take `CN[C@@H](C)C(=O)N[C@H]1CN(C(=O)Cc2ccc(Cl)nc2)c2ccccc2N(Cc2c(OC)ccc3cc(Br)ccc23)C1=O` [Example 89d]: the pIC50 is 4.61 in test [1] (setting [3]) and 8.22 in test [2].
Consider `CN[C@@H](C)C(=O)N[C@H]1CN(C(C)=O)c2cc(C(F)(F)F)ccc2N(Cc2c(C3CC3)cnc3ccccc23)C1=O` [Example 183, (S)-N-((S)-5-acetyl-1-((3-cyclopropylquinolin-4-yl)methyl)-2-oxo-7-(trifluoromethyl)-2,3,4,5-tetrahydro-1H-benzo[b][1,4]diazepin-3-yl)-2-(methylamino)propanamide], for which the pIC50 in test [1] (setting [3]) was 4.56; in test [2], 7.35.
As for `CN[C@@H](C)C(=O)N[C@H]1CN(C(=O)c2ccc(C(C)=O)cc2)c2ccccc2N(Cc2c(OC)ccc3cc(C(=O)NO)ccc23)C1=O` [Example 45, 5-(((S)-5-(4-acetylbenzoyl)-3-((S)-2-(methylamino)propanamido)-2-oxo-2,3,4,5-tetrahydro-1H-benzo[b][1,4]diazepin-1-yl)methyl)-N-hydroxy-6-methoxy-2-naphthamide 2,2,2-trifluoroacetate], the pIC50 is 4.52 in test [1] and 7.80 in test [2].
For the compound `CN[C@@H](C)C(=O)N[C@H]1CN(C(C)=O)c2cc(C#N)ccc2N(Cc2c(OC)ccc3c(Br)cccc23)C1=O` [Example 179, (S)-N-((S)-5-acetyl-1-((5-bromo-2-methoxynaphthalen-1-yl)methyl)-7-cyano-2-oxo-2,3,4,5-tetrahydro-1H-benzo[b][1,4]diazepin-3-yl)-2-(methylamino)propanamide], the pIC50 in test [1] (setting [3]) is 4.48; in test [2] it was 7.78.
For `CN[C@@H](C)C(=O)N[C@H]1CN(C(=O)c2ccc(C#N)cc2)c2cc(Cl)ccc2N(Cc2c(OC)ccc3cc(Br)ccc23)C1=O` [Example 131, (S)-N-((S)-1-((6-bromo-2-methoxynaphthalen-1-yl)methyl)-7-chloro-5-(4-cyanobenzoyl)-2-oxo-2,3 tetrahydro-1H-benzo[b][1,4]diazepin-yl)-2-(methylamino)propanamide hydrochloride], the pIC50 in test [1] (setting [3]) was 4.53; in test [2], 7.95.
Turning to `CCN[C@@H](CC)C(=O)N[C@H]1CN(C(=O)CS(C)(=O)=O)c2ccccc2N(Cc2c(OC)ccc3cc(Br)ccc23)C1=O` [Example 157, (S)-N-((S)-1-((6-bromo-2-methoxynaphthalen-1-yl)methyl)-5-(2-(methylsulfonyl)acetyl)-2-oxo-2,3,4,5-tetrahydro-1H-benzo[b][1,4]diazepin-3-yl)-2-(ethylamino)butanamide hydrochloride], the pIC50 in test [1] (setting [3]) is below 4.26; in test [2], 7.71.
For the compound `CN[C@@H](C)C(=O)N[C@H]1CN(C(=O)CS(C)(=O)=O)c2ccc(C#N)cc2N(Cc2c(OC)ccc3c(Br)cccc23)C1=O` [Example 175, (S)-N-((S)-1-((5-bromo-2-methoxynaphthalen-1-yl)methyl)-8-cyano-5-(2-(methylsulfonyl)acetyl)-2-oxo-2,3,4,5-tetrahydro-1H-benzo[b][1,4]diazepin-3-yl)-2-(methylamino)propanamide hydrochloride], the pIC50 in test [1] (setting [3]) is 4.75; in test [2] it was 7.74.
Turning to `CN[C@@H](C)C(=O)N[C@H]1CN(C(=O)c2cccc3[nH]ccc23)c2ccccc2N(Cc2c(C)ccc3ccccc23)C1=O` [Example 146, (2S)-N-[(3S)-1-(1H-indole-4-carbonyl)-5-[(2-methylnaphthalen-1-yl)methyl]-4-oxo-2,3-dihydro-1,5-benzodiazepin-3-yl]-2-(methylamino)propanamide], the pIC50 in test [1] (setting [3]) is below 4.26; in test [2], 7.78.
Consider `CN[C@@H](C)C(=O)N[C@H]1CN(C(=O)c2ccc(C(C)=O)cc2)c2ccccc2N(Cc2cc(=O)oc3cc(OC)ccc23)C1=O` [Example 69c], for which the values for the pIC50 in test [1] (setting [3]) and in test [2] were below 4.26 and 6.47, respectively.
Consider `CN[C@@H](C)C(=O)N[C@H]1CN(S(=O)(=O)c2ccc(NC(C)=O)cc2)c2ccccc2N(Cc2c(C)ccc3ccccc23)C1=O` [Example 98a, (S)—N—[(S)-5-(4-Acetylamino-benzenesulfonyl)-1-(2-methyl-naphthalen-1-ylmethyl)-2-oxo-2,3,4,5-tetrahydro-1H-benzo[b][1,4]diazepin-3-yl]-2-methylamino-propionamide hydrochloride], for which the figures for the pIC50 in test [1] and in test [2] were below 4.26 and 6.68, respectively.
Take `CN[C@@H](C)C(=O)N[C@H]1CN(C(=O)c2ccc(F)cc2)c2cc(Cl)ccc2N(Cc2c(OCC(F)(F)F)ccc3cc(Br)ccc23)C1=O` [Example 136, (S)-N-((S)-1-((6-bromo-2-(2,2,2-trifluoroethoxy)naphthalen-1-yl)methyl)-7-chloro-5-(4-fluorobenzoyl)-2-oxo-2,3,4,5-tetrahydro-1H-benzo[b][1,4]diazepin-3-yl)-2-(methylamino)propanamide hydrochloride]: the pIC50 in test [1] (setting [3]) was 4.38; in test [2], 6.73.

Values taken from patent US10053431B2, “Tetrahydro-benzodiazepinones” (priority 2013, dated 2018).
